Apparent affinities of Ab-95 variants for a coronavirus HR2 peptide

Values reported by Engelhart et al. 2022, doi:10.1038/s41597-022-01779-4 (FLAb copy).

Binding partner: SARS-CoV-2 spike HR2 peptide, sequence PDVDLGDISGINAS.

Each scFv is VH, the linker GGGGSGGGGSGGGGS, VL, as in the parent Ab-95, and differs from it in the CDRs of the light chain only.
VH: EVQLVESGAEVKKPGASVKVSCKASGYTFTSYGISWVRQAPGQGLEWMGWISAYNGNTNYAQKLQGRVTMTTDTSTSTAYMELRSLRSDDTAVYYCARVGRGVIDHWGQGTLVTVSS
VL: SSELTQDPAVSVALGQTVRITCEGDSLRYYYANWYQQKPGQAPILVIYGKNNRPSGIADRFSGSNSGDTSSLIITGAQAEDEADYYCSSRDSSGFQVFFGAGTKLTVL

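The parent was found by panning a naive human phage display library on the peptide. Variants in AAYL52 differ from the parent at up to three CDR positions; double and triple changes were sampled at random. AlphaSeq pools MATa yeast showing the antibodies with MATalpha yeast showing the peptide. Pairs that bind mate more often; barcode pairs of the diploids are counted by sequencing. A regression on co-assayed BCL2-family reference pairs converts the normalised counts of each replicate to an apparent Kd. Each pool was mated in three replicate cultures.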

Substitutions are numbered in sequence along the VL above, starting at 1 (not Kabat).
The read-out is the apparent dissociation constant on a log10 scale (nM): the lower, the stronger.
A mean of the replicates is given; it leaves out those without a signal.
"no signal" means that the variant was in the library but no mating with the target was seen in any replicate; the authors take this as a sign of poor binding, and no number exists.

changes,"mean, log10 nM",detected
R28F F95K Q96H,3.33,1 of 3
Y31T V97Y,3.30,3 of 3
R28C S93I F98T,3.03,3 of 3
Y29D Y30W S89T,2.88,3 of 3
G24K Y29P,4.38,1 of 3
D25F G94K,2.11,3 of 3
G24S K50W S92K,3.83,3 of 3
S93H Q96C,no signal,0 of 3
S26I Y31T R90S,4.37,1 of 3
L27I R28W Y31T,1.62,3 of 3
E23G Y30N N33I,2.60,3 of 3
G24Q F95L F98Y,2.90,1 of 3
G24A L27A,3.13,2 of 3
E23W L27W R28Q,no signal,0 of 3
E23P K50S N51G,2.96,3 of 3
S92A G94L Q96R,no signal,0 of 3
Y29S K50V S93H,2.87,3 of 3
D25G G49Q P54L,3.04,2 of 3
R53D S89H G94E,3.54,1 of 3
A32G P54A V97D,2.29,3 of 3
Y29K S92F F98R,3.46,2 of 3
R28P N51Y Q96Y,5.68,1 of 3
G24L N51D R53P,4.33,3 of 3
P54V S93N F98T,3.47,2 of 3
Y30P Q96Y,2.25,3 of 3
P54T S88W V97P,3.94,1 of 3
R90K F95C,no signal,0 of 3
Y30L D91N F98Y,no signal,0 of 3
E23H Y30P,1.93,2 of 3
P54I S55E S88R,4.48,1 of 3
S88M S89F V97G,no signal,0 of 3
Y29E Y30L G49N,3.35,2 of 3
L27N R90W V97M,3.33,2 of 3
G24I Y31D R53W,4.22,2 of 3
Y29R F95P F98K,4.42,1 of 3
Y29G R53W,5.34,1 of 3

Continued, with the values leading:

"mean, log10 nM",detected,changes
2.57,3 of 3,Y31I A32S D91G
3.74,1 of 3,K50I F95W F98Y
3.58,3 of 3,E23N R90G F98C
3.38,3 of 3,Y30I F95G F98Y
3.31,3 of 3,R53H S55Q Q96G
4.06,2 of 3,S26T Y30W R53S
2.85,3 of 3,N51A Q96P V97N
3.35,2 of 3,N33R S92L
1.80,3 of 3,E23D Y30S D91A
2.98,3 of 3,K50M S93Y
4.74,1 of 3,G24Q P54T F95V
4.68,3 of 3,K50M N51Y R90Q
4.46,2 of 3,Y31V S88I S93P
2.94,3 of 3,R53A S89V V97K
4.12,1 of 3,G24N S26L D91A
2.20,3 of 3,Y29K S88M D91P
2.90,3 of 3,D25E S26G K50L
1.49,3 of 3,N52W R90Q S93I
2.99,3 of 3,Y29Q N33S N52Q
no signal,0 of 3,N52C S92N S93L
3.80,2 of 3,R28H R53F Q96N
3.39,3 of 3,L27P S88T F95E
3.88,1 of 3,Y29D N51H R90D
2.84,2 of 3,G49Y P54N S55R
3.69,1 of 3,L27G A32G S92E
4.05,2 of 3,S26R N52Y G94V
2.76,3 of 3,D25K F95M F98P
3.88,3 of 3,S26L Y31Q K50E
3.29,1 of 3,S26G R28F S88Y
3.75,2 of 3,Y29K Y31I S89D
2.61,2 of 3,G24C K50I F98A
3.16,3 of 3,G24K A32Q
4.08,3 of 3,G24N K50L N52S
2.20,2 of 3,S88Q S89H S93N
3.48,1 of 3,R28T A32M F98G
2.67,3 of 3,S92P V97H F98R
2.76,3 of 3,G24A Y31T V97T

The first 7 entries again:

changes,"mean, log10 nM",detected
R28F F95K Q96H,3.33,1 of 3
Y31T V97Y,3.30,3 of 3
R28C S93I F98T,3.03,3 of 3
Y29D Y30W S89T,2.88,3 of 3
G24K Y29P,4.38,1 of 3
D25F G94K,2.11,3 of 3
G24S K50W S92K,3.83,3 of 3

Nonspecific signal, from three strains lacking the peptide, appeared in 28% of pairings of library AAYL52, centred on 3.91 (5% of these signals below 2.90); values are not corrected for it.
Parent in this assay: reference entry 2.31, copy in this library 2.25.